# Results reported in US20240116893A1, “Compounds for Disease Treatment” (Duke University, priority 2021, published 2024).
# The chains behind the UniProt entries cited, without tags or fusion partners.
# UniProt Q9NWZ3, whole entry: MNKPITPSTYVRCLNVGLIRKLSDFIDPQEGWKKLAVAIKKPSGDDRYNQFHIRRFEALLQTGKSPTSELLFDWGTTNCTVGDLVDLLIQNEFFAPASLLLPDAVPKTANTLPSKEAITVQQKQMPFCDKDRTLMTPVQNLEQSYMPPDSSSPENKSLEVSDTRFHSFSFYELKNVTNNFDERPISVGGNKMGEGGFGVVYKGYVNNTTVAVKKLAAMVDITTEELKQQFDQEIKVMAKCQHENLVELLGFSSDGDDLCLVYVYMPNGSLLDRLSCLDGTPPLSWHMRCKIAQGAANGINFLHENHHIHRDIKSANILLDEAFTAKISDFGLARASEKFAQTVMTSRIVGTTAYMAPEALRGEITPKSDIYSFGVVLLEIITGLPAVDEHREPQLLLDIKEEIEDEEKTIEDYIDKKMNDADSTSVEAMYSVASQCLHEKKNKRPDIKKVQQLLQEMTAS
# Molecular target: IRAK4 (Homo sapiens (Human), UniProt Q9NWZ3)
# Assay: IRAK4 kinase inhibition IC50 (TABLE 1; FIG. 1B selectivity screening)
# Format: biochemical
# Conditions: selectivity for TAK1 over IRAK4
row,Ratio IC50 (IRAK4)/IC50 (TAK1),Structure (SMILES)
1,2,CCCn1c(=NC(=O)c2cccc(C(N)=O)c2)[nH]c2cc(CN3CCCCC3)ccc21
2,35,CCCn1c(=NC(=O)c2cccc(C(N)=O)c2)[nH]c2ccc(CN(C)C)cc21
